Test results published in ChEMBL document CHEMBL1132539 (J Med Chem, 1999).

target: T1, Aminopeptidase N (Sus scrofa, UniProt P15145)
T1 sequence (P15145 whole entry): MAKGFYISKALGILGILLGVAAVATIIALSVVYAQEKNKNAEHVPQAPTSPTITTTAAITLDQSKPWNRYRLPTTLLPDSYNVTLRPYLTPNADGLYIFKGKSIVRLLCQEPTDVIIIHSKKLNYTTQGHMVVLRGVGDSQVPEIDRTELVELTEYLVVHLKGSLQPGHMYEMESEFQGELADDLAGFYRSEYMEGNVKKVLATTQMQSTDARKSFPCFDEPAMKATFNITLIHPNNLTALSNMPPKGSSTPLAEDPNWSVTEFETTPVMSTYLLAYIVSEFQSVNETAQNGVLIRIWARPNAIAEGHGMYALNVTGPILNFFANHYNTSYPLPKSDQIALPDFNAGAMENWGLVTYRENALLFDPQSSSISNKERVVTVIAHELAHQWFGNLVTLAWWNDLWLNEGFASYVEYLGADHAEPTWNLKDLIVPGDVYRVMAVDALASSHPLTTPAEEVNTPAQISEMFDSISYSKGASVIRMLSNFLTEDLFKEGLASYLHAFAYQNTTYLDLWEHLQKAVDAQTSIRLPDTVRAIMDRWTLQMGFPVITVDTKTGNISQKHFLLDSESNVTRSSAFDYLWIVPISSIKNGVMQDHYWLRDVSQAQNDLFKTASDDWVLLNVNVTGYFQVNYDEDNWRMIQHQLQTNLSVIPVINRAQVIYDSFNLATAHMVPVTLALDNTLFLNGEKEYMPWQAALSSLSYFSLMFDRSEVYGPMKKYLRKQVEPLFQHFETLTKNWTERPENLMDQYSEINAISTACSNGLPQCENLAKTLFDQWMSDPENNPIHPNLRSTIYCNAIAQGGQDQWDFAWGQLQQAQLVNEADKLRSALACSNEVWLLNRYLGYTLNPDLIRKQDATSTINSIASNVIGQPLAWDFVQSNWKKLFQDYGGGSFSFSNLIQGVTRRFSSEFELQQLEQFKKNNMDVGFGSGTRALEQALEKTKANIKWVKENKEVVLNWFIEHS

Compared with `N[C@H](CCS(=O)(=O)O)[C@H](S)C(=O)N[C@@H](Cc1ccc(O)cc1)C(=O)N[C@@H](CCS(=O)(=O)O)C(=O)O`, `N[C@H](CCS(=O)(=O)O)[C@@H](S)C(=O)N[C@@H](Cc1ccc(O)cc1)C(=O)N[C@@H](CCS(=O)(=O)O)C(=O)O` is 1.6-fold lower in Ki: 7.5 µM for the first, 4.6 µM for the second. The second binds more tightly here.

`CC[C@@H](C)[C@H](NC(=O)[C@H](S)[C@H](N)CCS(=O)(=O)O)C(=O)N[C@@H](CS(=O)(=O)O)C(=O)O` and `CC[C@@H](C)[C@H](NC(=O)[C@@H](S)[C@H](N)CCS(=O)(=O)O)C(=O)N[C@@H](CS(=O)(=O)O)C(=O)O` cannot be ordered by Ki: greater than 5 µM for the first, greater than 5 µM for the second.
